IC50 data for four compounds are collected here from US20140128599A1, “BENZOXAZOLE KINASE INHIBITORS AND METHODS OF USE” (Intellikine LLC La Jolla, priority 2008, published 2014).

By UniProt entry, the sequences of proteins in these tests, tags left out. Where a name states a change or a piece, a line headed by the entry shows the natural chain unless it says otherwise.
UniProt P48736: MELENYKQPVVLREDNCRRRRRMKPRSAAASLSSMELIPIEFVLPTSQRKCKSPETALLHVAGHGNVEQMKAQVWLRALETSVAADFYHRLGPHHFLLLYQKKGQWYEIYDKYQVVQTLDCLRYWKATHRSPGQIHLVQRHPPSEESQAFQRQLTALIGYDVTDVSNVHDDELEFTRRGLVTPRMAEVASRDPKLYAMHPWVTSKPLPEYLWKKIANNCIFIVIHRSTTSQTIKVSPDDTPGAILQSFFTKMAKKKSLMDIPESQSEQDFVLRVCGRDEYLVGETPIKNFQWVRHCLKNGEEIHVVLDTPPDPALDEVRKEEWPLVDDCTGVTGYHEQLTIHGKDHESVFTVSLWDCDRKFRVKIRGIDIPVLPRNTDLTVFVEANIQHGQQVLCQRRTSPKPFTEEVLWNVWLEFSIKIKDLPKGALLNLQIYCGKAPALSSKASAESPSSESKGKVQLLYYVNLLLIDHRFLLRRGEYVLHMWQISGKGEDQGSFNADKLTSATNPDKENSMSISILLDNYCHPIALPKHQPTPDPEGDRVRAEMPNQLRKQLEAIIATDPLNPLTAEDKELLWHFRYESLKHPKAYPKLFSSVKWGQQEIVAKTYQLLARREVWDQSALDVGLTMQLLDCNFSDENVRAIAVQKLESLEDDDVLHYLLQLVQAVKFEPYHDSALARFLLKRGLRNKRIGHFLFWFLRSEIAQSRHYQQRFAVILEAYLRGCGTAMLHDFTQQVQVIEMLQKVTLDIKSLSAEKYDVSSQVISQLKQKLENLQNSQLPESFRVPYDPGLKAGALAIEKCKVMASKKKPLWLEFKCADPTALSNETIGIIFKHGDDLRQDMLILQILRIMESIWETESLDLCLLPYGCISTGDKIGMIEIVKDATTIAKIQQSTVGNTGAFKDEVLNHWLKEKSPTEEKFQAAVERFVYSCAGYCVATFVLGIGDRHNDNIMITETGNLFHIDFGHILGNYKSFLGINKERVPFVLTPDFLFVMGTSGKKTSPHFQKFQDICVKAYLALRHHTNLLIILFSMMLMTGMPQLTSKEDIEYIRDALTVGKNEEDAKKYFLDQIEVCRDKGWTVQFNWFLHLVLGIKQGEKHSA
UniProt P42338: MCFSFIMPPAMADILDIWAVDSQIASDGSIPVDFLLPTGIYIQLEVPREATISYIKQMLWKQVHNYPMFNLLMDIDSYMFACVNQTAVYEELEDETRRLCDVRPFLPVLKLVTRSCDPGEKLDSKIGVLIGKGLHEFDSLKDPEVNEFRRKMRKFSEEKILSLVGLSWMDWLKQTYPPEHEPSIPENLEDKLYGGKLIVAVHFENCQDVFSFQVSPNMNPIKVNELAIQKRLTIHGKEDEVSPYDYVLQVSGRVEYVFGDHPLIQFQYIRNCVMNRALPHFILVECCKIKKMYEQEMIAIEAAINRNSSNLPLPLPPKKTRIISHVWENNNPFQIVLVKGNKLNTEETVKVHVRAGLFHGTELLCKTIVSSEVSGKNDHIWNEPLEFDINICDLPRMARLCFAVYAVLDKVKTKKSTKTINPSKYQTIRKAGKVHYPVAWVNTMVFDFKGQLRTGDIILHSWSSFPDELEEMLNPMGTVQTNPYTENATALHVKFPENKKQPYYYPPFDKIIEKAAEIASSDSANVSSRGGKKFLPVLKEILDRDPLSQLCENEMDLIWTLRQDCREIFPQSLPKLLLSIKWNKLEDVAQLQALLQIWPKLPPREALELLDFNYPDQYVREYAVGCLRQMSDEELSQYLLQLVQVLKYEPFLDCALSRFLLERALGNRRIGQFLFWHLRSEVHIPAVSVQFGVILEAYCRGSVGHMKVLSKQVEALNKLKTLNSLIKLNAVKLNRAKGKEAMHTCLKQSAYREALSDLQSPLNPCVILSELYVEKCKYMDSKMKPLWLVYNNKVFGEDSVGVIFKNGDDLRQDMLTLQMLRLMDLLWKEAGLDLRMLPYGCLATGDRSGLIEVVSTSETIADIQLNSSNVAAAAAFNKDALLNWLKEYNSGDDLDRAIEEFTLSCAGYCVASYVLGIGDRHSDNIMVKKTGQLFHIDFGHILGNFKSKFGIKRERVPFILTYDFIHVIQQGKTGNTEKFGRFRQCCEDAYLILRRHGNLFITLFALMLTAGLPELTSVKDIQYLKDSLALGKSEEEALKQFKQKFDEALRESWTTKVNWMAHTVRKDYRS
UniProt O00329: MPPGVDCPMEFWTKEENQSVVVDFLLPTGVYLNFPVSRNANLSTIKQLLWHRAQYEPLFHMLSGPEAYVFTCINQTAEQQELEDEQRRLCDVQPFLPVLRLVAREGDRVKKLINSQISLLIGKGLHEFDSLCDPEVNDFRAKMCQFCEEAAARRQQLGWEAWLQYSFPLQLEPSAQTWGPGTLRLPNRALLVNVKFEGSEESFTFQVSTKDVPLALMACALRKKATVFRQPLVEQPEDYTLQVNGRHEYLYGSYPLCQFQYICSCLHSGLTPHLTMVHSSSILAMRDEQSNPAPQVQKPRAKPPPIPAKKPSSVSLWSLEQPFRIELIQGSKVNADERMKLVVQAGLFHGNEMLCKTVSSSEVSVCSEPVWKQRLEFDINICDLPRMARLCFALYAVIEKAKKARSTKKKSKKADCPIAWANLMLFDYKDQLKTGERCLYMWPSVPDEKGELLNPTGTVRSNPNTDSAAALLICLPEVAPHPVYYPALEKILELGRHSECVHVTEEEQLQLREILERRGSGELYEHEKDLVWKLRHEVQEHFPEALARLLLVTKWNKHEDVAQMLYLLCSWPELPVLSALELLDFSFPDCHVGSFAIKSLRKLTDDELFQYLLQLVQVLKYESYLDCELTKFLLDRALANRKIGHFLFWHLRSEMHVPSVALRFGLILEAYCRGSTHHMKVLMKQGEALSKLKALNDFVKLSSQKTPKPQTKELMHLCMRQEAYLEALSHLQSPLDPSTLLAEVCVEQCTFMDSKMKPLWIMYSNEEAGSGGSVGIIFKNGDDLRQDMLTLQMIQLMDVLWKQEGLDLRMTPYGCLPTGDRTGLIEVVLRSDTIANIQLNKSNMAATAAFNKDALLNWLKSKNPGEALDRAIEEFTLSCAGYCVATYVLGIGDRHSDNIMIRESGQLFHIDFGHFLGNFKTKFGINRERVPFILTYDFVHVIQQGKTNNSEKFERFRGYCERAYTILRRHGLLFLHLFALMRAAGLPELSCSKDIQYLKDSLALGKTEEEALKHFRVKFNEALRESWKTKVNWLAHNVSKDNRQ

What all share (format): biochemical
For one test, the target named is T1, PI3K γ (Homo sapiens, UniProt P48736).
T1 construct: purchased Sigma
The test is described as follows: PI3K kinase inhibition assay (p110γ). As for the experimental part: Class I PI3-Ks can be either purchased (p110α/p85α, p110β/p85α, p110δ/p85α from Upstate, and p110γ from Sigma) or expressed as previously described (Knight et al., 2004). IC50 values are measured using either a standard TLC assay for lipid kinase activity (described below) or a high-throughput membrane capture assay. Kinase reactions are performed by preparing a reaction mixture containing kinase, inhibitor (2% DMSO final concentration), buffer (25 mM HEPES, pH 7.4, 10 mM MgCl2), and freshly sonicated phosphatidylinositol (100 μg/ml). Reactions are initiated by the addition of ATP containing 10 μCi of γ-32P-ATP to a final concentration 10 or 100 μM and allowed to proceed for 5 minutes at room temperature. For TLC analysis, reactions are then terminated by the addition of 105 μl 1N HCl followed by 160 μl CHCl3:MeOH (1:1). The biphasic mixture is vortexed, briefly centrifuged, and the organic phase is transferred to a new tube using a gel loading pipette tip precoated with CHCl3. This extract is spotted on TLC plates and developed for 3-4 hours in a 65:35 solution of n-propanol:1M acetic acid. The TLC plates are then dried, exposed to a phosphorimager screen (Storm, Amersham), and quantitated. For each compound, kinase activity is measured at 10-12 inhibitor concentrations representing two-fold dilutions from the highest concentration tested (typically, 200 μM).

The target in another test is T2, PI3K β (Homo sapiens, UniProt P42338).
T2 construct: purchased Upstate
The test can be described thus: PI3K kinase inhibition assay (p110β/p85α).

The target of a further test is T3, PI3K δ (Homo sapiens, UniProt O00329).
T3 construct: purchased Upstate
The test can be described thus: PI3K kinase inhibition assay (p110δ/p85α).

Where only a bound is given, the exact number is not on record here.

For `Nc1noc2ccc(-c3nn(CCN4CCOCC4)c4ncnc(N)c34)cc12` [compound 18], on PI3K γ, the IC50 was above 10 µM. In turn, `CCOC(=O)C(C)n1nc(-c2ccc3oc(N)nc3c2)c2c(N)ncnc21` (centres unmarked) [compound 24] yielded an IC50 against PI3K γ above 10 µM. As to `Nc1nc2cc(-c3nn(C4CC(O)C4)c4ncnc(N)c34)ccc2o1` (centres unmarked) [compound 26], the IC50 against PI3K β and at PI3K δ was below 1 µM each time.

`CNc1noc2ccc(-c3nn(C(C)C)c4ncnc(N)c34)cc12` [compound 15] registered an IC50 against PI3K γ above 10 µM.
